{"source": "PubChem BioAssay AID750", "about": "(Sanford-Burnham Center for Chemical Genomics, 2007)", "note": "This is a selection; strong and weak results do not stand in their true shares. Some results for these compounds are left out of this collection, so the calls shown say nothing about other tests. Calls of active or inactive are those of the source.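 How the source made its calls: active means activation factor of at least 2 for MT1-MMP transcription at 10 µM; inactive means the rest.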", "data": [{"test": "MT1-MMP promoter reporter activation – cell-based, luciferase luminescence, primary screen (AID 750)", "details": "HT1080 MT1-MMP promoter luciferase reporter, overnight, at 10 µM, active compounds read high", "values": [{"smiles": "CN(C)c1cccc(C(=O)NCC2(N(C)C)CCCCC2)c1", "activation factor": "inactive: 1.1"}, {"smiles": "O=C(OC1CN2CCC1CC2)C(CO)(c1ccccc1)c1ccccc1", "note": "(configuration not stated)", "activation factor": "inactive: 1.2"}]}]}
